# Data from patent US20020055462A1, “Use” (priority 1999, published 2002).
# “Also recorded” adds a separate entry of the source.
# System: IL-6 plus IL-6sR stimulated aromatase activity
# Assay: IL-6 plus IL-6sR stimulated aromatase activity in breast fibroblasts
# Format: cell-based, human
# Description: The experimental protocol used was as described in the legend to FIG. 1.
# Fibroblasts were cultured as previously described (2). Briefly, they were cultured in Eagles' modified minimal essential medium containing Hepes buffer (20 mmol/l), 10% foetal calf serum (FCS) and supplements. Cells were routinely passaged 2-3 times after which replicate 25 cm^2 flasks were seeded with fibroblasts and grown to confluency.
# At the end of the treatment period aromatase activity was measured in intact monolayers using [1β-^3H] androstenedione (15-30 Ci/mmol, NEN-Du Pont, Stevenage, Herts, UK) over a 3-20 h period (2, 3). The number of cells was measured by counting cell nuclei using a Coulter counter. Experiments were carried out in triplicate and results shown are representative of 2-3 investigations.
smiles,measurement,value
"COc1cc2c(cc1O)CC[C@@H]1[C@@H]2CC[C@]2(C)[C@@H](O)CC[C@@H]12 [2-meOE2, 2-methoxyoestradiol]",inhibition of stimulation of aromatase activity by IL-6 plus its soluble receptor (in words),antagonise; also recorded: inhibited
